Marks after values point to notes of the source that are not given here.

The results in this text go back to patent US11000627B2, “Treatment of implants with phosphonic acid compounds” (Nano Bridging Molecules SA, priority 2016, dated 2021).

Holding throughout (assay type): physicochemical
A short description of data set [1]: XPS phosphorus over metal ratio on Titanium grade 5 dental implant (prospective data). The method, then:
A Titanium grade 5 dental implant (bulk composition atomic concentration Titanium 90%, Aluminum 6%, Vanadium 4%; length 11.0 mm, diameter 3.75 mm) is provided with a roughened surface, produced by sand blasting and acid etching according to industry standards. The dental implant is immersed in 30 ml of a 2% (v/v) aqueous solution of deconex 15 PF-x (which is a phosphate free, potassium hydroxide based standard cleaning agent). The solution is placed in an ultrasonic bath (output frequency 30 kHz) and sonicated at 65° C. for 15 min. The implant is removed from the cleaning agent solution and rinsed with water as follows: 2 times with 30 ml, swirling at room temperature; 4 times with 30 ml, sonicating for 2 min at 65° C.; 1 time with 30 ml, swirling at room temperature. […] The solution is placed in the ultrasonic bath and sonicated at 65° C. for 10 min. The implant is rinsed with water as follows: 2 times with 10 ml, swirling at room temperature; 1 time with 10 ml, sonicating for 2 min at 65° C.; 1 time with 10 ml, swirling at room temperature. The dental implant is dried in a desiccator over P2O5 and under vacuum (ca 20 mbar) for at least 3 hours. The samples are analyzed by X-ray photoelectron spectroscopy (XPS). Same analysis conditions as described in Example 8 are used.

Data set [2] can be described thus: XPS phosphorus over metal ratio on Titanium grade 4 cylinders.
The nature of data set [3]: XPS phosphorus over metal ratio on Titanium grade 5 dental implant (prospective data). This is another data set of the same source.

As for “diethylenetriamine penta(methylene phosphonic acid) [PA-7]”, the “Phosphorus/Metal (surface treatment as described herein above)” value in data set [1] is 0.16-0.20. Further, the Phosphorus/Metal in data set [2] is recorded as 0.16^b. The “Phosphorus/Metal (surface treatment as described in Comp. Example 6)” value in data set [3] was 0.05-0.11.
